# Reference: patent publication US20050096347A1, “Beta3-Adrenoreceptor agonists, agonist compositions and methods of using” (Molecular Design International, Inc., priority 1997, published 2005)
# Chains of the proteins cited; added tags and fusions are not shown.
# UniProt P07550, whole entry: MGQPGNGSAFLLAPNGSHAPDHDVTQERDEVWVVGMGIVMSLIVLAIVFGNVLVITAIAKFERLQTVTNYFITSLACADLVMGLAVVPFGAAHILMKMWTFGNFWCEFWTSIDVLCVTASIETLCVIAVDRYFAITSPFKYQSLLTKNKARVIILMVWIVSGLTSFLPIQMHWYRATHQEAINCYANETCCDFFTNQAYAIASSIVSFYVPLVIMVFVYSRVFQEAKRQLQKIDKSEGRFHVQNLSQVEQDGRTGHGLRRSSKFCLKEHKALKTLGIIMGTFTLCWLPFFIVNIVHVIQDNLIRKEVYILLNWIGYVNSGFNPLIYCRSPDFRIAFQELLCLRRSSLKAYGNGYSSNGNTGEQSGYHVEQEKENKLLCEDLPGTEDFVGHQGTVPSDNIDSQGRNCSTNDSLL
# UniProt P08588, whole entry: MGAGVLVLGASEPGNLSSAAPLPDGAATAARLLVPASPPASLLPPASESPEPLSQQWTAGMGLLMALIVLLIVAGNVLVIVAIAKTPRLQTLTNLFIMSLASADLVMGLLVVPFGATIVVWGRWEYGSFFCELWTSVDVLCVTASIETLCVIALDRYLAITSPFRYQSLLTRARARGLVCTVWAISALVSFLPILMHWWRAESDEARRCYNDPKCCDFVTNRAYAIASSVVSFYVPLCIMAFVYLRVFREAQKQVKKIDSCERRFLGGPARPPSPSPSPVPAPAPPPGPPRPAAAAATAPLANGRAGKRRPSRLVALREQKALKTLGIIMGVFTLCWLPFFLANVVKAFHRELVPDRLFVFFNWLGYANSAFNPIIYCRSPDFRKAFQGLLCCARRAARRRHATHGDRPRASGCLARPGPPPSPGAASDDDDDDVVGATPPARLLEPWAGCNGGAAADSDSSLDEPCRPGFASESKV
# Values joined by “and” are separate entries in the source; they are usually repeats but may differ in a detail not shown here. Equal entries are not always repeated.
# Assays:
# [1] = biological target: T1, human β2 Adrenoreceptor (Homo sapiens, UniProt P07550); assay: Radioligand competition binding, human β2 adrenoreceptor expressed in CHO cells ([125I]ICYP); details: [125I]ICYP as radioligand
# T1 construct: expressed in transfected cells
# [2] = biological target: human β1 Adrenoreceptor (Homo sapiens, UniProt P08588); assay: Radioligand competition binding, human β1 adrenoreceptor expressed in CHO cells ([125I]ICYP)
SMILES,"pKi ± SEM, Human β2 Adrenoreceptor CHO ([1]; N = 4-9)","pKi ± SEM, human β2 CHO ([1]; N = 4-9 (Table 2))","pKi ± SEM, human β1 CHO ([2]; [125I]ICYP as radioligand, N = 4-9 (Table 2))",Ki [2]
"COc1c(I)cc(CC2NCCc3cc(O)c(O)cc32)cc1I (stereo not shown) [Compound 2, reference compound]",8.69 and 8.69 ± 0.16,8.69 ± 0.16,7.10 ± 0.06,–
COc1c(I)cc(CC2NCCc3cc(O)c(O)cc32)cc1I (stereo not shown) [drawing 80],–,–,–,25 nM
